# Results: PubChem BioAssay AID493131 (Broad Institute, 2011)
# By UniProt entry, the sequences of proteins in these tests, tags left out. Where a name states a change or a piece, a line headed by the entry shows the natural chain unless it says otherwise.
# UniProt P13346: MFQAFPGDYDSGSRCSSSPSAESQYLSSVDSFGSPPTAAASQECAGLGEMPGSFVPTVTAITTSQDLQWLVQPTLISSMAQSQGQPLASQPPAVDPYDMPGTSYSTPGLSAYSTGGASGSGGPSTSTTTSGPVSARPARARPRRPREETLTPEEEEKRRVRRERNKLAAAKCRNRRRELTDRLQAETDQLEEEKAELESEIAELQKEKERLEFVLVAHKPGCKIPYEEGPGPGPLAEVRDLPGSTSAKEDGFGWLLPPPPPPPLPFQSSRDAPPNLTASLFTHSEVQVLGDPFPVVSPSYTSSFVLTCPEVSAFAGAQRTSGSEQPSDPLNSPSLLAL
# Only a part is listed here, and it is no random draw. Activity calls are given as the source filed them.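 Rule for the calls: active = mean activation above about 17%, with every replicate also reaching it (limit read from the data, passing the limit was not always enough); inconclusive = only one of the two conditions met; inactive = the rest.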
# Target: Protein FosB (Mus musculus) (UniProt P13346)
# Experiment: enhancers of mouse delta FosB DNA binding – biochemical, fluorescence polarization, TAMRA-CDK5 oligo, single point, primary screen (AID 493131);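 note: fluorescence polarization rise as delta FosB binds a TAMRA Cdk5 AP-1 oligo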
# Settings: purified delta FosB, at 25 µM, active compounds read high, percent of positive-control signal above neutral wells
row,Compound,activation
1,COC(=O)c1cc2c(s1)N=C(c1ccccc1)N(C)P2(=O)N1CCOCC1 (centres undefined),inactive: -3.88%
2,CN(C)C(=O)Oc1noc2ccccc12,inactive: -5.65%
3,O=c1c2cc([N+](=O)[O-])ccc2[nH]c2c([N+](=O)[O-])cc([N+](=O)[O-])cc12,inactive: -1.16%
4,Cc1ccccc1OP(=O)(Nc1ccccn1)Oc1ccccc1C,inactive: -9.71%
5,CC(NC(=O)COC(=O)C(O)(c1ccccc1)c1ccccc1)c1ccccc1 (centres undefined),inactive: -13.5%
6,Cc1ccc(NP(=O)(Oc2cccc(C)c2)Oc2cccc(C)c2)nc1,inactive: -11.6%
7,c1ccc(-c2nn[nH]n2)c(-c2nn[nH]n2)c1,inactive: 1.98%
8,CCNC(=S)/N=C(\N)N[N+](=O)[O-],inactive: -8.77%
9,O=C(NC1CCS(=O)(=O)C1)NP(=S)(Oc1ccccc1)Oc1ccccc1 (centres undefined),inactive: -0.924%
10,O=P1(N(CCCl)CCCl)OCCC2CCCCN21 (centres undefined),inactive: 0.27%
11,C[C@@H]1C=CCP(=O)(Oc2ccccc2)O1 (some centres undefined),inactive: 5.48%
12,C[C@H]1OP(=O)(Oc2ccccc2)C[C@@H]2O[C@@H]21 (some centres undefined),inactive: -0.156%
13,Cc1ccccc1CN(C)C(=O)COC(=O)C(O)(c1ccccc1)c1ccccc1,inactive: -11.6%
14,COC(=O)C1(C)COP(=O)(NCc2ccccc2)OC1 (centres undefined),inactive: 0.913%
15,N#C/C(=C\c1ccc(N(CCBr)CCBr)cc1)C(N)=O,inactive: -4.47%
16,CC(=O)c1ccc(N2CC2c2ccncc2)cc1 (centres undefined),inactive: -6.74%
17,CC(=O)Nc1ccc(Oc2c([N+](=O)[O-])cc([N+](=O)[O-])cc2[N+](=O)[O-])cc1,inactive: 2.94%
18,CC(=O)Nc1ccc([As](=O)(O)O)c(O)c1,inactive: -4.28%
19,CCOc1ccc(C2=NCC(CBr)S2)cc1 (centres undefined),inactive: 5.97%
20,O=P1(Nc2nc3ccc(Cl)cc3s2)COc2ccccc2O1 (centres undefined),inactive: 1.67%

row,Compound,activation
1,CC(C)(C)C(=O)NC(Sc1ccccc1)C(Cl)(Cl)Cl (centres undefined),inactive: 1.07%
2,CCc1cc(O)c([N+](=O)[O-])c(C)c1[N+](=O)[O-],inactive: -1.57%
3,O=C(NC(Sc1ccncn1)C(Cl)(Cl)Cl)c1ccccc1 (centres undefined),inactive: -5.24%
4,Oc1ccccc1CNc1ccccn1,inactive: -2.66%
5,CC(C)CC(=O)NC(Sc1ccc(Cl)cc1)C(Cl)(Cl)Cl (centres undefined),inactive: -13.8%
6,Nc1cc(N)c2nonc2c1[N+](=O)[O-],inactive: -7.95%
7,Cc1ccc(N/C(=N/P(=O)(N2CCOCC2)N2CCOCC2)N2CCOCC2)cc1,inactive: -1.69%
8,NC(=O)c1cc([N+](=O)[O-])cc([N+](=O)[O-])c1N,inactive: 4.32%
9,Clc1ccc(Cl)c(NC2=NCC(CBr)S2)c1 (centres undefined),inactive: -1.57%
10,CN1CCCC(OC(=O)C(c2ccccc2)c2ccccc2)C1 (centres undefined),inactive: -7.5%
11,COc1ccccc1OP(=O)(Nc1ccc(C)cn1)Oc1ccccc1OC,inactive: 6.89%
12,Nc1cccc2ccc([As](=O)(O)O)cc12,inactive: -9.59%
13,CCN(N=Nc1nonc1N)c1nonc1N,inactive: -0.41%
14,O=P(Nc1nc2ccc(Cl)cc2s1)(c1ccccc1)c1ccccc1,inactive: 2.57%
15,CCCC1OP(N)(=O)OCC1CC (centres undefined),inactive: -6.04%
16,O=C(O)c1ccccc1[As](=O)(O)O,inactive: 0.905%
17,CC(=O)Nc1ccc([As](=O)(O)O)cc1,inactive: -2.03%
18,Cc1ccc(NP(=O)(Oc2ccccc2F)Oc2ccccc2F)nc1,inactive: 8.15%
19,CCOP(=O)(Nc1ccccc1)OCC,inactive: 1.62%
20,Cc1cc(SC(NC(=O)c2ccc(F)cc2)C(Cl)(Cl)Cl)ncn1 (centres undefined),inactive: -2.41%

row,Compound,activation
1,O=[N+]([O-])c1ncn(CCn2ncnc2[N+](=O)[O-])n1,inactive: -2.51%
2,CC(C)(C)C(=O)NC(Sc1ccncn1)C(Cl)(Cl)Cl (centres undefined),inactive: 0.488%
3,O=C(O)CNc1ccc([As](=O)(O)O)cc1,inactive: 1.26%
4,O=[N+]([O-])c1cccc(NC2=NCC(CBr)S2)c1 (centres undefined),inactive: -1.39%
5,COC(=O)C1(C)COP(=O)(Nc2ccccc2)OC1 (centres undefined),inactive: 0.718%
6,O=P1(N(CCCl)CCCl)OCCCS1 (centres undefined),inactive: 6.59%
7,O=C(Nc1cc([As](=O)(O)O)ccc1O)c1ccccc1,inactive: -0.677%
8,CCN(/C(=N/P(=O)(N1CCOCC1)N1CCOCC1)N1CCOCC1)c1ccc(OC)cc1,inactive: 6.71%
9,C[N+]1=C2C=CC=CC=C2SC12C([N+](=O)[O-])=CC([N+](=O)[O-])=C[C-]2[N+](=O)[O-] (centres undefined),inactive: -10.7%
10,Nc1ccc([As](=O)(O)c2ccc(N)cc2)cc1,inactive: -5.41%
11,CC1CCN(C(=O)Oc2c(Cl)cc(Cl)c3cccnc23)CC1,inactive: -14.2%
12,CN(C)C(=O)OCCc1n(C)cc[n+]1C,inactive: 4.03%
13,CC(C)=N/N=C(\N)N[N+](=O)[O-],inactive: -3.78%
14,COc1ccc(C2=NCC(CBr)S2)cc1 (centres undefined),inactive: -1.28%
15,CCc1nc2c(n1)c1c(non1O)c1c2no[n+]1[O-],inactive: -1.58%
16,O=[N+]([O-])c1cc([N+](=O)[O-])c(CCNc2ccccc2)c([N+](=O)[O-])c1,inactive: -8.51%
17,Cc1ccc(NP(=O)(Oc2ccccc2)Oc2ccccc2)nc1,inactive: 5.21%
18,O=[N+]([O-])c1cccc2n[nH]nc12,inactive: 2.3%
19,CC(=O)N1C2C3N(C(C)=O)C1C1N(C(C)=O)C(C(N1C(C)=O)N3C(C)=O)N2C(C)=O,inactive: 7.21%
